Measured values taken from patent US11517598B2 (priority 2016, dated 2022).

Legend:
[1] = system: CT26-LacZ tumors; test: CT26-LacZ tumours in immunocompetent mice; assay type: in vivo, mouse
[2] = system: CXCL9 mRNA in CT26WT cells; test: qPCR of cytokines and chemokines in CT26WT cells
[3] = system: 786-0 cells; test: Cell viability assay (alamarBlue) in 786-0 cells; conditions: 786-0, 48 h, one round of infection
[4] = system: cytokine, chemokine and IFN stimulated gene expression in 786-0 cells; test: Gene expression microarray and qPCR in 786-0 cells; assay type: cell-based, human; conditions: 786-0, 150 uM, VSVΔ51 MOI 0.01, 24 h
[5] = system: CT26WT tumors; test: CT26WT syngeneic tumour model (remission, re-challenge, bio-distribution, tumoral T-cells); assay type: in vivo, mouse; conditions: for virus in major organs (bio-distribution, plaque assay): 40 mg/kg intratumoral plus VSVΔ51, 1, 2 or 3 days post infection; for complete remission: CT26WT, combination with VSVΔ51
[6] = system: human HT29 colon cancer cells; test: HT29 tumours in nude mice

**Q.** How did the “survival, combination with VSVΔ51” value [1] turn out when Sodium orthovanadate was run?
**A.** significant improvement of survival over the monotherapies

**Q.** What about the “CXCL9 mRNA expression” value ([2]; with VSVΔ51) of the same substance?
**A.** vanadate-mediated increase in mRNA expression

**Q.** What about the “CXCL9 mRNA expression” value ([2]; with VSVΔ51, listed as orthovanadate) of the same substance?
**A.** synergistic up-regulation of CXCL9

**Q.** And the “cell death with VSVΔ51 G-less” value [3]?
**A.** increased 786-0 cell death was also observed

**Q.** What about the “gene set-enrichment (GOrilla), combination with VSVΔ51” value [4] of the same substance?
**A.** further potentiated in combination with VSVΔ51

**Q.** And the “virus in major organs (bio-distribution, plaque assay)” value [5]?
**A.** doesn't induce spread of virus to major organs

**Q.** And the “virus in major organs (bio-distribution, plaque assay)” value ([5]; listed as orthovanadate)?
**A.** no virus was detected in major organs

**Q.** And the complete remission [5]?
**A.** approximately 20%

**Q.** What about the complete remission ([5]; listed as orthovanadate) of the same substance?
**A.** 20%

**Q.** And the “VSVΔ51 viral growth in tumour” value [6]?
**A.** enhanced VSVΔ51 viral growth

**Q.** What about the “survival, combination with VSVΔ51” value [6] of the same substance?
**A.** no improvements in survival
